Measurements: US6387406B1, “Copolymer compositions for oral delivery” (Supratek Pharma Inc., priority 1992, dated 2002)

Details: mouse, in vivo, iv

With Pluronic P85 the “Polymer content Spleen” value was 0.47 % of initial dose per organ.
